The chains behind the UniProt entries cited, without tags or fusion partners. Where a name states a change or a piece, a line headed by the entry shows the natural chain unless it says otherwise.
UniProt P04818: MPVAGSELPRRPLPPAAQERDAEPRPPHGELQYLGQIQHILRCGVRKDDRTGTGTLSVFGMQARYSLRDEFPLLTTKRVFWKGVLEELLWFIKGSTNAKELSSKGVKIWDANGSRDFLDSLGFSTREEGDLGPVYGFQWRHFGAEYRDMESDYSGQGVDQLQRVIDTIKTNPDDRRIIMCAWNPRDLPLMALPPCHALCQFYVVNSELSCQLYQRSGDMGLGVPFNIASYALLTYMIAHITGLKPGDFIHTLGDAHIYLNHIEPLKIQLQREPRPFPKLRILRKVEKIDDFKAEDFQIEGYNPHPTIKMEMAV

According to ChEMBL document CHEMBL4819101, “Design, synthesis and molecular docking studies of thymol based 1,2,3-triazole hybrids as thymidylate synthase inhibitors and apoptosis inducers against breast cancer cells” (Bioorg Med Chem, 2021):

Target: Thymidylate synthase (Homo sapiens, UniProt P04818)
Assay: Potency index, ratio of pemetrexed IC50 to test compound IC50 for inhibition of thymidylate synthase (unknown origin) by spectrophotometric analysis

Ratio IC50	Compound
1.26	Cc1ccc(C(C)C)c(OCc2cn(-c3cccc(C(=O)O)c3)nn2)c1
2.4	Cc1ccc(C(C)C)c(OCc2cn(-c3ccccc3C)nn2)c1
